Results taken from US6670493B2, “Methods and compositions for treating diseases due to androgen deficiency with glucocorticoid receptor antagonist compounds and new compounds” (Jenapharm GmbH & Co. KG, priority 2001, dated 2003).

Columns and labels:
primary rat Leydig cells [1] = test: Cell damage: activity of mitochondrial succinate dehydrogenase (WST-1 test) in primary rat Leydig cell cultures; assay type: cell-based
Procedure: (§1) Testicular cells were prepared from the testicles of sexually mature, 12-week old, male Wistar rats by means of a collagenase treatment. Leydig cells were obtained from this preparation by a continuous Percoll gradient centrifugation.
(§2) Freshly prepared Leydig cells were sown in microtiter plates in 100 μL of DMEM/F12 with phenol red (20,000) cells/well) with addition of 0.1% BSA, penicillin (100 U/ml) and streptomycin (100 μg/ml). After one hour, the medium was changed with addition of substance. For 18 hours, the Leydig cells were incubated with dexamethasone alone or together with glucocorticoid receptor antagonists (250 μL of DMEM/well with addition of penicillin (100 U/ml) and streptomycin (100 μg/ml)). […] Ethanol was used as solvent for dexamethasone and the glucocorticoid receptor antagonists; the final concentration of the ethanol was not more than 0.2%.
Parallel to the testosterone measurement, cell damage was determined after the 26 hours by measuring the activity of the mitochondrial succinate dehydrogenase (WST-1 test, Böhringer, Mannheim).

primary rat Leydig cells [2] = test: hCG-stimulated testosterone production in primary rat Leydig cells treated with dexamethasone with or without glucocorticoid receptor antagonist (Elisa); assay type: cell-based
Procedure: as §1, §2
Aliquots of the supernatant were frozen at −70° C. Testosterone was measured with a commercial Elisa (IBL, Hamburg). The standard curve of testosterone Elisa was then adapted to the cell culture conditions.

hCG: human chorionic gonadotropin (hCG, Sigma), used to stimulate the testosterone production of the cells
Succinate Dehydrogenase Activity, Average value ± SD (primary rat Leydig cells [1]; hCG alone 0.5 ng/ml): 0.281 ± 0.041 Absorptions Units | Effect of stimulation on mitochondrial succinate dehydrogenase activity (in words) (primary rat Leydig cells [1]; hCG in the given dose): not changed | Testosterone Production, Average value ± SD (primary rat Leydig cells [2]; hCG alone 0.5 ng/ml): 4.26 ± 1.11 ng/mL | Testosterone Production, Average value ± SD (%) (primary rat Leydig cells [2]; hCG alone 0.5 ng/ml, basal = 0): 100.00 ± 27.25% | Effect of stimulation on testosterone production (in words) (primary rat Leydig cells [2]; hCG stimulation of cultured Leydig cells): multiple increase in the testosterone production
